Laboratory results from US8703098B2, “Labelled adrenomedullin derivatives and their use for imaging and therapy” (Institut de Cardiologie de Montreal, priority 2004, dated 2014).

How the values were obtained:
[1] = Plasma kinetics of 125I-rAM(1-50) after single intravenous injection in rats; format: in vivo, rat; conditions: drug given 5 min before the 125I-rAM(1-50) bolus
Protocol: (§1) All experimental procedures were performed in accordance with the regulations and ethical guidelines from Canadian Council for the Care of Laboratory Animals, and received approval by the Animal Ethics and Research Committee of the Montreal Heart Institute. Male Sprague-Dawley rats (Charles River), weighing between 400-450 g, were anaesthetized by an initial intramuscular dose of xylazine (10 mg/kg of body weight) and ketamine (50 mg/kg of body weight), followed by an intra-peritoneal injection of heparin (2000 units; Sigma). Catheters were inserted into the right carotid artery and jugular vein. Heart rate and systemic blood pressure were monitored continuously. […] Venous and arterial blood samples (3 ml) were collected and centrifuged (1875 g, 15 min, 4° C.) and the plasma saved for subsequent measurement of irAM (immunoreactive AM). A similar amount of saline was infused into the animals to prevent hypovolaemia.
(§2) The animals were then killed and the lungs, liver, kidneys (en bloc with the adrenal glands) and heart were removed and gravity drained. […] Results are expressed as a percentage of total radioactivity injected. […]
(§3) Multiple group comparisons were performed by factorial ANOVA, followed, when a significant interaction was found, by the Bonferroni/Dunn t test. […] In the canine experiments, the effect of drugs on AM extraction was analyzed by two-tailed paired Student's t tests. […]

[2] = Biodistribution and pulmonary retention of 125I-rAM(1-50) in rats after intravenous or intra-arterial injection; format: in vivo, rat; conditions: drug given 5 min before tracer
Protocol: as §1, §2, §3

[3] = In vivo single-pass pulmonary clearance of 125I-rAM(1-50) in dogs, single bolus indicator-dilution technique; set-up: species or system dog; conditions: drug as intravenous bolus of 100 nmol 5 min before second experiment, mean ±S.E.M.
Protocol: Dogs were anaesthetized and prepared as described in detail in reference, which is hereby incorporated by reference. A catheter was inserted into the carotid artery and positioned just above the aortic valve. This catheter was connected to a peristaltic pump for automated blood withdrawal. Another catheter was placed into the jugular vein and positioned in the right ventricular outflow tract to allow bolus injection of the study tracers. A bolus was prepared by adding 3.3 μCi of 125I-rAM(1-50) (2.9 pmol) to 3 ml of Evans-Blue-dye labelled albumin and 0.9% saline to give a final volume of 6 ml. The mixture was separated into three equal parts for the two successive experiments in each animal and to realize dilution-curve standards. A baseline single-bolus indicator-dilution experiment was performed. After 5 min, CGRP (n=7), hAM(22-52) (n=8) and unlabelled rAM(1-50) (n=9) were administered as an intravenous bolus of 100 nmol and 5 min later a second indicator dilution experiment was performed.
The collected samples were processed and indicator-dilution curves constructed and analyzed as described in previously cited reference 13. […]
as §3

CGRP: calcitonin gene-related peptide (Phoenix Pharmaceuticals)
effect of administration prior to radiolabelled rAM(1-50) on its plasma kinetics [1]: did not modify plasma kinetics
effect of prior administration on biodistribution of 125I-rAM(1-50) [2]: did not significantly modify this distribution
effect of prior administration on pulmonary first-pass retention of 125I-rAM(1-50) (intra-arterial compared with intravenous) [2]: not affected
mean single-pass pulmonary extraction of 125I-rAM(1-50) after administration of the drug [3]: 40.6±2.9%
